The list shows a part of the results, in another mix than the full data. Calls of active or inactive are those of the source.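 Rule for the calls: active = inhibition above the mean plus 3 SD, with well images judged a real hit on visual review (cut at about 60% in these data, passing the limit was not always enough); inconclusive = inhibition over the cutoff but images rejected on review; inactive = inhibition not above the cutoff.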
assay: inhibitors of insulin promoter-driven GFP, primary screen, imaging, TRM-6 cells (human fetal islet line), eGFP reporter, cell count (AID 1273); conditions: at 2 µM, stronger effect = higher value, reporter expression induced with tamoxifen

SMILES	inhibition
Cc1nn(-c2ccccc2)c2c1P(=O)(N1CCOCC1)N(C)C(c1ccccc1)=N2 (configuration not stated)	inactive: -21.4%
COc1cc(C2NCCC3(OCCO3)C2(C)C)cc(OC)c1OC.O=[N+]([O-])c1cc([N+](=O)[O-])c(O)c([N+](=O)[O-])c1 (configuration not stated)	inactive: 0%
O=[N+]([O-])c1ccc2c(c1)nnn2O	inactive: 39.3%
CCOP1(=S)c2c(C)nn(CCC#N)c2N=C(c2ccccc2F)N1C (configuration not stated)	inactive: -3.57%
O=P(Nc1nccs1)(Oc1ccccc1)Oc1ccccc1	inactive: 15%
Cc1cc(C)cc(OP(C)(=O)Nc2ccccn2)c1 (configuration not stated)	inactive: 6.67%
Cc1ccc(C)c(NP(C)(=O)Oc2ccccc2)c1 (configuration not stated)	inactive: -37.8%
CCOP(=O)(Nc1cccc2ccccc12)OCC	inactive: -37.5%
COc1cc(C(=O)NCC2(N3CCOCC3)CCCCC2)cc(Cl)c1OC(C)C	inactive: -36.4%
Cc1cccc(OCC(=O)OC2CN3CCC2CC3)c1 (configuration not stated)	inactive: -71.4%
Cc1cc(C)cc(OP(C)(=O)Nc2ccc(C)cc2C)c1 (configuration not stated)	inactive: -71%
CCOC(=O)c1ccc(NP(C)(=O)Oc2cc(C)cc(C)c2)cc1 (configuration not stated)	inactive: -2.78%
O=C(OCCN1CCN(CCOCc2ccccc2)CC1)C(O)(c1ccccc1)c1ccccc1	inactive: -69.2%
CC(C)(C)C(=O)NC(Sc1ccccc1)C(Cl)(Cl)Cl (configuration not stated)	inactive: 44.2%
CCC(=O)N1C2C3N(C(=O)CC)C1C1N(C(=O)CC)C(C(N1C(=O)CC)N3C(=O)CC)N2C(=O)CC	inactive: -35.1%
CCN(CC)CCCOC(=O)C(O)(c1ccccc1)C1CCCCC1 (configuration not stated)	inactive: 25%
COC(=O)c1cc2c(s1)N=C(c1ccccc1)N(C)P2(=O)N1CCOCC1 (configuration not stated)	inactive: 9.09%
Cc1ccc(OP(=O)(Nc2ccccn2)Oc2ccc(C)cc2)cc1	inactive: 60%
CC(=O)NC(SC(=S)N(CC(C)C)CC(C)C)C(Cl)(Cl)Cl (configuration not stated)	inactive: -294%
CP(=O)(Nc1ccccc1)Oc1ccc(F)cc1 (configuration not stated)	inactive: -17.1%
c1ccc(-c2nn[nH]n2)c(-c2nn[nH]n2)c1	inactive: 14.3%
COc1ccc(OP(C)(=O)Nc2ccc(SC(F)(F)F)cc2)cc1 (configuration not stated)	inactive: -100%
CCOC(=O)c1ccc(NP(C)(=O)Oc2ccc(F)cc2)cc1 (configuration not stated)	inactive: -14.3%
CC(=O)NC(SC(=S)N(C)C)C(Cl)(Cl)Cl (configuration not stated)	inactive: 27.8%
C(Cc1nn[nH]n1)Cc1nn[nH]n1	inactive: 0%
CN(C)CCOC(=O)C(O)(c1ccccc1)C1CCCCC1 (configuration not stated)	inactive: 33.3%
CP(=O)(Nc1ccc2c(c1)OCCO2)Oc1ccccc1 (configuration not stated)	inactive: 4%

Reference: PubChem BioAssay AID1273 (Columbia University Molecular Screening Center, 2008)
